Ab-14 light chain CDR variants: yeast mating affinities

Data: MIT Lincoln Laboratory AlphaSeq set, Engelhart et al. 2022, doi:10.1038/s41597-022-01779-4, as distributed in FLAb.

The target is the same throughout: PDVDLGDISGINAS, from the HR2 region of SARS-CoV-2 spike.

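The starting antibody came from a phage panning campaign against this peptide. The library (AAYL50) carries one to three amino acid substitutions per variant, with no insertions or deletions. Affinity was read by AlphaSeq, a pooled yeast mating assay with surface-displayed partners. Binding brings cells together so that they mate, and sequencing counts the barcode pairs among the diploids. Scores were corrected for input abundance and mapped to Kd with protein pairs of known affinity run in the same pool. Each pool was mated in three replicate cultures.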

The variants keep the heavy chain, the linker and the frameworks of Ab-14 (scFv order VH, a 15-residue (Gly4Ser)3 linker, VL).
VH: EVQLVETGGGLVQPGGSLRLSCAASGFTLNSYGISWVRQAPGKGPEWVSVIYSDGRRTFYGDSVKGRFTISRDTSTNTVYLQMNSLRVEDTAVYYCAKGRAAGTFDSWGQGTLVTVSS
VL: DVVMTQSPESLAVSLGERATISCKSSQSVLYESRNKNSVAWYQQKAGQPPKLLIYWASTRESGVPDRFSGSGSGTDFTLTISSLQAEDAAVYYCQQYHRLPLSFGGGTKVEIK

The parent's light chain CDRs are KSSQSVLYESRNKNSVA, WASTRES, QQYHRLPLS; each variant's own CDRs replace them letter for letter.
All variants listed here change Q96 of the VL, counted from its first residue.
The Kd shown is the geometric mean over detected replicates; a lower Kd is a better binder.
"nd" means that the variant was in the library but no mating with the target was seen in any replicate; the authors take this as a sign of poor binding, and no number exists.

With GSSQSVLYESHNKNSVA | WASTRES | QNYHRLPLS the result was 34 µM (1 of 3 replicates). For KSSQSVLYESRNKNSVA | WESTRES | QSYHRLPLS, the assay gave 37 µM (1 of 3 replicates). With KSSQSVLYERRYKNSVA | WASTRES | QTYHRLPLS the result was 1.3 µM (3 of 3 replicates). For KSSQSVLYESRNKNSVA | WASTRES | QPYHRLELN, the assay gave 94 µM (1 of 3 replicates). With KSSQSVLYESKNKNSVA | WASTRES | QAYHRLPLS the result was 47 nM (3 of 3 replicates). Variant KSSQSVLYESVNKNSVA | WASTRGS | QTYHRLPLS showed 13 nM (3 of 3 replicates). For KSSQSVLYESHNKNSVA | WASTRES | QSYHRLPLS, the assay gave 92 nM (3 of 3 replicates). Variant KSSQSYLYESRNKNSVA | WASTRES | QDYHRLFLS showed 190 nM (3 of 3 replicates). With KSSQVVQYESRNKNSVA | WASTRES | QLYHRLPLS the result was 58 nM (3 of 3 replicates).

Variant GSSSSVLYESRNKNSVA | WASTRES | QLYHRLPLS gave 1.2 µM (3 of 3 replicates). With KSSQSVLYEMRNKNSVA | WASTRES | QDNHRLPLS the result was 11 µM (2 of 3 replicates). Variant KSSQSVEYESRNKNSVA | WASARES | QWYHRLPLS gave nd (0 of 3 replicates). Variant KSSQSVLYENRNKNSVA | WASTRES | QGYARLPLS showed 110 nM (3 of 3 replicates). For KSSQSVLFESRNKNSVA | WASTRES | QTYHRLPNS, the assay gave 140 µM (3 of 3 replicates). Variant ASSQSVLYEARNKNSVA | WASTRES | QHYHRLPLS gave 130 nM (3 of 3 replicates). Variant KSSQSVLYESRNKNSVT | WASTRES | QIYHRLPLS showed nd (0 of 3 replicates). Variant KWSQSVLYESRYKNSVA | WASTRES | QEYHRLPLS gave 14 µM (2 of 3 replicates). With KSSQSVLYESRNKNSVA | WAATRQS | QAYHRLPLS the result was 10 µM (3 of 3 replicates).

For KSSQSVLYESRNKNSVR | WGSTRES | QMYHRLPLS, the assay gave nd (0 of 3 replicates). For KSSQSVLYESRNKNSPA | WASTRES | QMYHRLPLS, the assay gave 78 µM (1 of 3 replicates). Variant KSSQSVLYESRNKNYQA | WASTRES | QGYHRLPLS showed 43 µM (1 of 3 replicates). Variant KSSQSVLYESRNKETVA | WASTRES | QVYHRLPLS gave 15 µM (2 of 3 replicates). Variant TSSQSVLYESRNKNSWA | WASTRES | QAYHRLPLS showed nd (0 of 3 replicates). With KSSQSVLYESDNKNSVA | WASTRHS | QAYHRLPLS the result was 100 nM (3 of 3 replicates). With KSSFSVLYESRNKNSYA | WASTRES | QPYHRLPLS the result was 880 nM (1 of 3 replicates). With KSSQSVRYESRNKNSVW | WASTRES | QSYHRLPLS the result was 12 µM (1 of 3 replicates). Variant KSSQSVLYESRNKNLVA | WASTRES | QEVHRLPLS showed 350 µM (2 of 3 replicates).

With KSSQSVLYESRNKGSVA | WAMTRES | QDYHRLPLS the result was nd (0 of 3 replicates). For KSSQSVLYESRNKNSVA | WASTRES | QWYHRLPLS, the assay gave 680 nM (3 of 3 replicates). With KDSQSVLYESRNKNSVA | WASTRES | QAYHNLPLS the result was 360 nM (3 of 3 replicates).

Picked from the list: the 5 lowest averages where every replicate gave a value.

For KSSQSVLYESVNKNSVA | WASTRGS | QTYHRLPLS, the assay gave 13 nM (3 of 3 replicates).
For KSSQSVLYESKNKNSVA | WASTRES | QAYHRLPLS, the assay gave 47 nM (3 of 3 replicates).
For KSSQVVQYESRNKNSVA | WASTRES | QLYHRLPLS, the assay gave 58 nM (3 of 3 replicates).
For KSSQSVLYESHNKNSVA | WASTRES | QSYHRLPLS, the assay gave 92 nM (3 of 3 replicates).
For KSSQSVLYESDNKNSVA | WASTRHS | QAYHRLPLS, the assay gave 100 nM (3 of 3 replicates).

Parent in this assay: reference entry 4.4 nM, copy in this library 48 nM.
As a blank, each scFv also met three strains without target: over library AAYL50, 18% of these pairings were detected, typically at 15 µM and seldom below 970 nM.